{"source": "patent US20210032345A1", "about": "“ANTI-PD-L1 ANTIBODIES, COMPOSITIONS AND ARTICLES OF MANUFACTURE” (Genentech, Inc., priority 2008, published 2021)", "tested_on": "rhesus PD-L1", "test": "FACS binding to PMA/ionomycin-cultured rhesus mononuclear cells (CD4+ T cells)", "conditions": "half-maximal binding", "method": "Rhesus blood was obtained from Southwest Foundation for Biomedical Research (San Antonio, Tex.). Blood was diluted with an equal volume of PBS and overlayed on 96% Ficoll-Paque (GE Healthcare) for separation of mononuclear cells. Mononuclear cells were lysed of red blood cells using erythrocyte lysis buffer (Qiagen) and cultured overnight at 1.5×10^6 cells/ml with 5 ng/ml PMA plus 1 μM ionomycin in 6-well plates. Culture media was RPMI 1640 with 10% fetal bovine serum, 20 μM HEPES, and 1:100 dilutions of the following supplements from Gibco: Gluta-MAX, sodium pyruvate, penicillin/streptomycin, and non-essential amino acids. Cells were harvested the following day and aliquoted to a 96-well plate for binding studies (approximately 120,000 cells per well).\nThe PD-L1 antibody YW243.55.570 or Herceptin® antibody control were titrated starting at 10 μg/ml, in three-fold serial dilutions and bound to cells in 50 μl volumes for 25 minutes on ice. Cells were washed and then bound with anti-human IgG PE (Caltag) at 20 μg/ml for 25 minutes on ice. […]\nAll samples were run on a […] FACSCalibur and Mean Fluorescence Intensity of PD-L1 binding data as a function of anti-PD-L1 antibody concentration was analyzed using Tree Star, Inc. FlowJo® software; EC50, values (Ab concentration associated with half-maximal binding) were calculated using Kaleidagraph. […]", "data": [{"substance": "YW243.55.S70: affinity-matured phage anti-PD-L1 antibody derived from YW243.55, selected as the primary candidate; full length IgG1", "values": [{"measurement": "EC50", "result": 300, "unit": "pM"}]}]}
